Data on three molecules can be found in patent US20080311130A1 (IMMUNE DISEASE INSTITUTE, published 2008).

Protein sequences, listed by entry. Tags and fused reporters are not part of them. Residues count along the entry.
UniProt P05362, 28-480 limits assumed: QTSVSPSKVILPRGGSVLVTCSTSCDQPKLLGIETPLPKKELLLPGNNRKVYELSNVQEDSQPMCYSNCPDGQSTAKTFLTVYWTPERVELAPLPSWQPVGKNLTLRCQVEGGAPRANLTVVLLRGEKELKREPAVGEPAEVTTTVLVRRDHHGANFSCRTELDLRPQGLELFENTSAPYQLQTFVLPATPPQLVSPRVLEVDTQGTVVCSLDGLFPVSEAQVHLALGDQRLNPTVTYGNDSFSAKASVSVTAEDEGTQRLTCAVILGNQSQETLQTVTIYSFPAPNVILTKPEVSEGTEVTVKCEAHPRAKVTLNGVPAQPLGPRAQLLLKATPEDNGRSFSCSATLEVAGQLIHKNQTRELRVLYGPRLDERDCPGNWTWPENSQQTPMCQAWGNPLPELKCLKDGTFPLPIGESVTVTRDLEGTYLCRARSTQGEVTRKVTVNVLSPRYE

Broadly, the Kd is the equilibrium constant for the complex coming apart. Low readings indicate tighter binding, high ones weaker binding. One may read the koff as the rate constant with which the complex falls apart. Read a high koff as a short-lived complex. For orientation: kon means a measure of how fast the partners come together. Higher therefore signals faster complex formation.

Experiment [1] concerns the target ICAM-1-Fcγ (ICAM-1 residues of 1-480 fused to the Fc of human IgG, R&D Systems) (human) (UniProt P05362). Put plainly: flow cytometry on yeast-displayed I domain, ICAM-1-Fcγ 10 µg/ml.
For experiment [2], the target named is T1, ICAM-1-Fcγ (ICAM-1 residues of 1-480 fused to the Fc of human IgG, R&D Systems) (human, UniProt P05362 28-480).
T1 construct: range 1-480; Bought (R&D Systems); also called ICAM-1-Fcγ chimera; not shown: Fc of human IgG
Described as above. On the procedure:
Cells that were cultured only in SD-CAA or further induced in SG-CAA were harvested, washed with 100 μl of labeling buffer (PBS, 0.5% BSA, 10 mM MgCl₂), and then incubated with ligands at 10 μg/ml in 50 μl of the labeling buffer for 20 min with shaking at 30° C. in a 96-well V-bottom plate. Ligands used in this study were anti-c-myc antibody 9E10 (Santa Cruz Biotechnology, CA) and anti-hemagglutinin antibody 12CA5 (Roche Applied Science), αL I domain-specific antibodies TS1/22 and MEM83³², and ICAM-1-Fcγ (ICAM-1 residues of 1-480 fused to the Fc of human IgG, R&D Systems). After incubation with the primary ligands, cells were washed once in 100 μl of the labeling buffer and incubated with the fluorescence-conjugated secondary antibodies at 5 μg/ml in 50 μl of the labeling buffer for 20 min at 4° C. Finally, cells were washed once in 100 μl and suspended in 100 μl of the labeling buffer for flow cytometry (FACScan, BD Biosciences).
Good display on the yeast cell wall was shown by the binding of the anti-hemagglutinin (12CA5) and anti-c-myc (9E10) antibodies and I domain-specific antibodies TS1/22 and MEM83 (FIG. 1 and not shown). Binding was also measured of ICAM-1-Fcγ chimera (FIG. 1). Binding was undetectable to the wild-type I domain, and ICAM-1 bound 56±19% as well to the IA as to the HA I domain as measured by adjusted specific fluorescence intensity (ASFI).

For experiment [3], the target named is T1, ICAM-1-Fcγ (ICAM-1 residues of 1-480 …). The experiment is described as follows: SPR (Biacore 3000), I domain injected over ICAM-1-Fcγ-coupled CM5 chip, 10 mM MgCl2. On the procedure:
Mutant I domains (F265S, F292A, F292G, F265S/F292G, and HA) with residues of Asn-129 to Tyr-307 were expressed in Escherichia coli BL21 (DE3) (Novagen), refolded, and purified as described previously⁶. ICAM-1-Fcγ-coupled or mock-coupled CM5 sensor chip as control was prepared using the amine coupling kit (BIAcore, Piscataway, N.J.), as described previously³³. Surface plasmon resonance was measured using Biacore 3000. I domains were injected over the chip in 20 mM Tris HCl, pH 8.0, 150 mM NaCl, 10 mM MgCl₂, at a flow rate of 10 μl/min at room temperature.
Several of the most activating mutants were expressed in Escherichia coli and refolded in order to measure the kinetics of binding to ICAM-1 by surface plasmon resonance (FIG. 2). Data are shown in Table 2, and for comparison are shown kinetics measured for the wild-type and disulfide-bonded IA and HA mutants in a previous study⁶, and for the same disulfide-bonded HA mutant in the current study.
The values shown in the table are mean ± SD from three independent measurements. The parameters of kₒₙ, koff, and Kd were calculated by fitting the 1:1 Langmuir binding model to the Biacore sensogram. The values were from the previous studies ⁶.
Background: Surface plasmon resonance follows binding to a sensor surface in real time, without labels.

The target is the same in experiment [4]. Put plainly: cell-based or functional assay.

B1: wild-type αL I domain (Asn-129 to Thr-318), yeast-displayed (receptor, not shown: large carriers; small tags and cut ends)
chain: NVDLVFLFDGSMSLQPDEFQKILDFMKDVMKKLSNTSYQFAAVQFSTSYKTEFDFSDYVKWKDPDALLKHVKHMLLLTNTFGAINYVATEVFREELGARPDATKVLIIITDGEATDSGNIDAAKDIIRYIIGIGKHFQTKESQETLHKFASKPASEFVKILDTFEKLKDLFTELQKKIYVIEGTSKQDLT
For the molecule B1, the ICAM-1 (% ASFI of HA) in experiment [1] was 0 % ASFI of HA.

B2: intermediate affinity αL I domain mutant (IA; L161C/F299C), yeast-displayed (receptor)
chain: NVDLVFLFDGSMSLQPDEFQKILDFMKDVMKKCSNTSYQFAAVQFSTSYKTEFDFSDYVKWKDPDALLKHVKHMLLLTNTFGAINYVATEVFREELGARPDATKVLIIITDGEATDSGNIDAAKDIIRYIIGIGKHFQTKESQETLHKFASKPASEFVKILDTFEKLKDLCTELQKKIYVIEGTSKQDLT
notes: yeast surface display; disulfide-bonded mutant; also called IA I domain; not shown: Aga2, linker and hemagglutinin tag of pCTCON; c-myc tag
Turning to B2, the “binding relative to the HA I domain (ASFI)” value in experiment [2] worked out at 56%.

B3: soluble high affinity αL I domain mutant HA (K287C/K294C), Asn-129 to Tyr-307 (receptor)
chain: NVDLVFLFDGSMSLQPDEFQKILDFMKDVMKKLSNTSYQFAAVQFSTSYKTEFDFSDYVKWKDPDALLKHVKHMLLLTNTFGAINYVATEVFREELGARPDATKVLIIITDGEATDSGNIDAAKDIIRYIIGIGKHFQTKESQETLHKFASKPASEFVCILDTFECLKDLFTELQKKIY
notes: also called disulfide-bonded HA mutant; HA I domain
For the molecule B3, in experiment [3], the Kd worked out at 105 nM, the koff amounted to 0.011 s⁻¹ and the kon worked out at 105000 M⁻¹ s⁻¹. In experiment [4], the “IC50 in blocking the adhesion of PMA activated lymphocytes to ICAM-1 coated surfaces” value was 5300 nM.
